Sequences of proteins named here, by UniProt entry; tags and fusion partners are left off. Residues count along the entry.
UniProt P15209, 32-821 Y433F: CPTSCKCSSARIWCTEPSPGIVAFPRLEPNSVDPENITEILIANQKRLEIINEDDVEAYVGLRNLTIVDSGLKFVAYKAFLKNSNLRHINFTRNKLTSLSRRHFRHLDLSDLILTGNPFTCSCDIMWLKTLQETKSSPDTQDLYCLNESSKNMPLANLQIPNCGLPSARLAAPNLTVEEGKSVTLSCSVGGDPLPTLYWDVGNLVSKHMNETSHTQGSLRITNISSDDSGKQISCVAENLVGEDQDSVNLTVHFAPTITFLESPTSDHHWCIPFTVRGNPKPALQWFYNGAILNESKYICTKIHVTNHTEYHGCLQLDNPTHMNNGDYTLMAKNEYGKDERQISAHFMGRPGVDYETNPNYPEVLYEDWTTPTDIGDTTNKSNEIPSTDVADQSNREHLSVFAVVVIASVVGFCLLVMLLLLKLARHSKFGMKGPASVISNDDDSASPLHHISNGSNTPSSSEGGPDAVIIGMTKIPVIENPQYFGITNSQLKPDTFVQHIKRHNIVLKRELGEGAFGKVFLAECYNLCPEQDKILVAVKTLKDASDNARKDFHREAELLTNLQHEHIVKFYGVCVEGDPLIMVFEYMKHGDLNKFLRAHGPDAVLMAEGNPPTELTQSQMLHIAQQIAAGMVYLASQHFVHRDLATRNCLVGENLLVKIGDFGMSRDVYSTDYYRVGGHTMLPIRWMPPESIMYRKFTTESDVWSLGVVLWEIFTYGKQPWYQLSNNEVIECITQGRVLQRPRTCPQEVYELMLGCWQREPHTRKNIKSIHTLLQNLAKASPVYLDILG
UniProt P15209, 32-821: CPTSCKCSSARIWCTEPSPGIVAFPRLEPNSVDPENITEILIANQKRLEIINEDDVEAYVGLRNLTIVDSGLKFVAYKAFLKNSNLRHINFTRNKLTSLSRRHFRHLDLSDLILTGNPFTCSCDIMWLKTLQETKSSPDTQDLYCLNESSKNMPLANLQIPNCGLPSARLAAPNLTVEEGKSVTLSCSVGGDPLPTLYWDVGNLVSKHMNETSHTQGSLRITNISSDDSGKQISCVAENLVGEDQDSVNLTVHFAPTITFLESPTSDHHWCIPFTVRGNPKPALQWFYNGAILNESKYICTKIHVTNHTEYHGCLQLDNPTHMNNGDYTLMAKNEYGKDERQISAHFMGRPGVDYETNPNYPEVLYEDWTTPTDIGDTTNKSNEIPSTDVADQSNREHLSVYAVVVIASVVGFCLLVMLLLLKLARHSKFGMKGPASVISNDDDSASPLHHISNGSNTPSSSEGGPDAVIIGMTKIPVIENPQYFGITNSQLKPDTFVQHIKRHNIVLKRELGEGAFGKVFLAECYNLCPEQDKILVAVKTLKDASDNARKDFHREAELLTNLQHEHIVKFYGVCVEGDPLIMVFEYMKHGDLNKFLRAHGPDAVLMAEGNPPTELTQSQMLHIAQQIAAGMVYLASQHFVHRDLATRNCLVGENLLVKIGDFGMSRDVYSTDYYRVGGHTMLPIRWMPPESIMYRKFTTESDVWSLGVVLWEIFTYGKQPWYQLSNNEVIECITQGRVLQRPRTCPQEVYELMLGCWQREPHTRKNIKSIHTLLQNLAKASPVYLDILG
UniProt P15209, 32-821 S440A: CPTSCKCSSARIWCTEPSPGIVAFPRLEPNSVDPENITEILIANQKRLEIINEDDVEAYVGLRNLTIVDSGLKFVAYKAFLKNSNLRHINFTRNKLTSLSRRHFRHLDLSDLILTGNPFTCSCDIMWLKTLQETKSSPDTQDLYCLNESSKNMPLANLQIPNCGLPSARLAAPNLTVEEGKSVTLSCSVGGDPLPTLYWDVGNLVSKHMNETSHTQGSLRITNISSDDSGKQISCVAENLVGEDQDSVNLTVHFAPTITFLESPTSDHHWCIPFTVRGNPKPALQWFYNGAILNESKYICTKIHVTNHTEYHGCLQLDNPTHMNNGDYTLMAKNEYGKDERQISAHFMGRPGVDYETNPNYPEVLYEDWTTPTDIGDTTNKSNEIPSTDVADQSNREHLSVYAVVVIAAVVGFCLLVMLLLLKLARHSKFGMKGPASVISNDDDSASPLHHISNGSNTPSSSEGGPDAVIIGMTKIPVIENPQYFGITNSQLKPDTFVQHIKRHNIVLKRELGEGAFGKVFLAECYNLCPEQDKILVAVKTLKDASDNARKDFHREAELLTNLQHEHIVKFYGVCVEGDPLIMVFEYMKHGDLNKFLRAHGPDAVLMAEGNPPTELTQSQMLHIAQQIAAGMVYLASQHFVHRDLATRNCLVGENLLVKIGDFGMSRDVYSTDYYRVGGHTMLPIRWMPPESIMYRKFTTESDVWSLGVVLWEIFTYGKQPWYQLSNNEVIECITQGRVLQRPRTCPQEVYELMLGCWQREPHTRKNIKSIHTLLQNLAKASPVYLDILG
UniProt P15209, 32-821 V437A: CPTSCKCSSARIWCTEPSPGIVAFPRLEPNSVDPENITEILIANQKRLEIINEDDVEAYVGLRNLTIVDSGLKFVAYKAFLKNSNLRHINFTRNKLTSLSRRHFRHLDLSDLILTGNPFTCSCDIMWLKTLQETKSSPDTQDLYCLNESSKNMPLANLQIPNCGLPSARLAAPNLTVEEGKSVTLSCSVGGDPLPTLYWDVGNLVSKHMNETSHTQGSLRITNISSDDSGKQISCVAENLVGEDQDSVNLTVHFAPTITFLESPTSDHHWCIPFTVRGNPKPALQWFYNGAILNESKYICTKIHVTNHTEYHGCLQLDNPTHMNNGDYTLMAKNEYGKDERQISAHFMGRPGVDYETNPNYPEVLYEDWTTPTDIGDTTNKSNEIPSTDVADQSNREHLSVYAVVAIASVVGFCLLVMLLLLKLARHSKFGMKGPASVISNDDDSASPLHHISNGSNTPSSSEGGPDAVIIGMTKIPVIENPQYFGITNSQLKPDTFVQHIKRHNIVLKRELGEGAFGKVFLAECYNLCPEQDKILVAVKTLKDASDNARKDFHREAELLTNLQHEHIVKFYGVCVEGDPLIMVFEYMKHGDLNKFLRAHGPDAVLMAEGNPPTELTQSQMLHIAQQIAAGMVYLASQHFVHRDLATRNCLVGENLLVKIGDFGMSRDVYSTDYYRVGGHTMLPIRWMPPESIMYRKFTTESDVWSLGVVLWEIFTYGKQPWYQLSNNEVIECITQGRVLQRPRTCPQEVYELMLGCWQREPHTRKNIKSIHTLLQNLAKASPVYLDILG

In publication PMC7938888, “Antidepressant drugs act by directly binding to TRKB neurotrophin receptors” (Cell, 2021):

Experiments:
TRKB.Y433F = target: T1, TRKB.Y433F (Mus musculus, UniProt P15209, Y433F); test: Cell-free ligand binding assay, TRKB.Y433F mutant; conditions: biotinylated fluoxetine
T1 construct: wild-type GFP-tagged full length TRKB or the GFP-tagged Y433F TRKB mutant; host or cells: HEK293T
Description: (§1) The cell-free assays (binding assays) were performed in white 96-well plates, based on the protocol used for western-blotting or ELISA ([Baeza-Raja et al., 2016]; [Das et al., 2015]). The plates were precoated with anti-GFP, anti-FLAG, anti-TRK or anti-TRKB antibody (1:1000) in carbonate buffer (pH 9.8), ON at 4°C. Following blocking with 3% BSA in PBS buffer (2 h at RT), 120 ug of total protein from each sample (of lysates from HEK293T cells transfected to overexpress GFP-TRKB.wt or GFP-TRKB.Y433F) were added and incubated overnight at 4°C under agitation. […] The luminescence was determined via HRP-conjugated streptavidin (1:10000, 1h, RT) activity reaction with ECL by a plate reader. The luminescence signal from blank wells (containing all the reagents but the sample lystates, substituted by the blocking buffer) was used as background. The specific signal was then calculated by subtracting the values of blank wells from the values of the samples with matched concentration of the biotinylated ligand. For Figure 2E, the precipitated TRKB.wt or Y433F was incubated with tritiated imipramine (0-30μM) and the radioactive emission of the ligand was determined by scintillation (OptiPhase Supermix cocktail: #1200-439; MicroBeta2, Perkin-Elmer). […]

GFP-TRKB = target: T2, GFP-TRKB (Mus musculus, UniProt P15209); test: Microscale thermophoresis (MST) in lysates of GFP-TRKB expressing HEK293T cells; type: binding; conditions: unlabeled FLX 0-100 μM, 15 min, lysates of transfected HEK293T cells
T2 construct: wild-type GFP-tagged full length TRKB or the GFP-tagged Y433F TRKB mutant; host or cells: HEK293T
Description: Microscale Thermophoresis - MST - experiments were performed using Monolith NT.115 (Blue/Red) instrument (NanoTemper Technologies GmbH, Germany). The cell lysates of HEK293T cells expressing GFP-TRKB were used as a source of fluorescently labeled TRKB. HEK293T cells were transfected with GFP-fused TRKB as described and lysed 24h after transfection. […] The lysates of non-transfected HEK293T cells were used to evaluate background fluorescence, which appeared to be undetectable in current MST set up. […] The measurements were done in premium coated capillaries (NanoTemper Technologies GmbH, MO-K025) using LED source with 470nm and 50% infrared-laser power at 25°C. Hill model was used to evaluate binding affinity, each data point represents mean ΔFnorm values from four independent experiments. The bound fraction of the GFP-TRKB was determined and the fitting was performed using the Hill model method incorporated by the MO Affinity Analysis v2.3 software (NanoTemper Technologies).

in vivo = conditions: mouse, prefrontal cortex, oral, 15 mg/kg/day, FLX brain concentration, 15 mg/kg/day in drinking water for 21 days, mean of Table S2
mice = test: Ocular dominance plasticity (monocular deprivation, intrinsic signal imaging); type: in vivo, mouse
Description: The “transparent skull” preparation was executed as described in literature ([Steinzeig et al., 2017]). Briefly, adult female mice (20-22 weeks old) were anesthetized via i.p. injection with a mixture containing: 0.05 mg/kg fentanyl (Hameln, Germany); 5 mg/kg midazolam (Hameln, Germany); 0.5 mg/kg medetomidine (Orion Pharma, Finland); diluted in saline (B Braun, Germany). The animals’ eyes were covered with protective-gel (Alcon, UK). The animal’s head was shaved and disinfected with ethanol and Betadine. The mouse head was then fixed on the stereotaxic frame and the temperature was maintained at 37°C. A mixture of lidocaine and adrenaline (Orion Pharma, Finland) was applied locally on the head and the skin was cut with spring scissors. The incision area was restricted 2 mm above the bregma and caudal edge of intraparietal bone. The scalp was removed and a focused air stream and a cotton swab were used to clean and stop bleeding. The periosteum was gently scratched away from the skull with an eye scalpel and the temporal muscles were pushed aside, in order to expose enough space around the area of interest to attach the metal holder. When the skull was smooth, white and dry, fat was removed from the skull rapidly by passing on it a cotton swab soaked in acetone and the air current was used to avoid its penetration into the bone. Then, with a metal stick, a thin layer of cyanoacrylate glue (Loctite 401, Henkel, Germany) was applied to the surface of the skull, in order to make the skull transparent. After waiting 10 minutes for the glue to dry, a first layer of acryl was applied on the skull surface with a brush. Acryl was used to prolong the life of the transparency and was prepared by stirring acrylic powder (EUBECOS, Germany) with methacrylate liquid (Densply, Germany) until a nail-polish consistency was reached. […]
Optical imaging. The saturation of haemoglobin in the primary visual cortex of the right hemisphere was measured to assess cortical activity ([Cang et al., 2005]; [Kalatsky and Stryker, 2003]). […]

TRKB.S440A = TRKB.S440A (Mus musculus, UniProt P15209, S440A); conditions: biotinylated fluoxetine
Description: as §1

TRKB.V437A = TRKB.V437A (Mus musculus, UniProt P15209, V437A); conditions: biotinylated fluoxetine
Description: as §1

## CNCCC(Oc1ccc(C(F)(F)F)cc1)c1ccccc1 (centres unmarked) [FLX, fluoxetine]
TRKB.Y433F
  FLX binding to TRKB.Y433F: essentially lost
GFP-TRKB
  direct binding to GFP-tagged TRKB (MST): directly binds
In vivo
  concentration at 21 days: 31.9 ± 5.9 µM
mice; TRKB.Y433F mice
  effect on shift in ocular dominance: lost
mice; adult mice, FLX 10 mg/kg/day for 4 weeks
  shift in ocular dominance after 7-day monocular deprivation: dramatic shift in OD
mice; wild-type mice co-treated with pravastatin
  effect on shift in ocular dominance: lost
TRKB.S440A
  FLX binding to TRKB.S440A: significantly reduced
TRKB.V437A
  FLX binding to TRKB.V437A: essentially lost
